Consider one compound from publication PMC9667534, “Insertion of Nanoluc into the Extracellular Loops as a Complementary Method To Establish BRET-Based Binding Assays for GPCRs” (ACS Pharmacology & Translational Science, 2022).

One assay addresses Nluc-M1R(G176) (Homo sapiens, UniProt P11229). The experiment in a line: BRET saturation binding at intact HEK293T cells. The conditions noted are these: mean ± SEM.
The target of the next assay is Nluc-M1R(Nterm) (Homo sapiens, UniProt P11229). Briefly: BRET saturation binding at intact HEK293T cells. The conditions noted are these: mean ± SEM. For orientation: BRET reads energy transfer from a luciferase to a nearby fluorophore.

The structures appear in SMILES notation.

Regarding `Cc1cc(C=Cc2cc3c4c(c2)CCCN4CCC3)cc(C)[n+]1CCNC(=O)CCc1cn(CCCCC2CCN(CC(=O)N3c4ccccc4NC(=O)c4ccccc43)CC2)cn1`, the “pKd (BRET)” value amounted to 8.60 ± 0.06 at Nluc-M1R(G176) and 8.04 ± 0.04 at Nluc-M1R(Nterm).
